Reference: patent US20210322545A1 (priority 2016, published 2021)

Test system: glioma cells
Assay type: cell-based

Substance: TNF-α
- surface expression of PD-L1 and MHC I markers: not
